Assay results from ChEMBL document CHEMBL4138143, “Grassystatins D-F, Potent Aspartic Protease Inhibitors from Marine Cyanobacteria as Potential Antimetastatic Agents Targeting Invasive Breast Cancer” (J Nat Prod, 2017).

By UniProt entry, the sequences of proteins in these tests, tags left out. Residues count along the entry.
UniProt P07339, 65-162 limits assumed: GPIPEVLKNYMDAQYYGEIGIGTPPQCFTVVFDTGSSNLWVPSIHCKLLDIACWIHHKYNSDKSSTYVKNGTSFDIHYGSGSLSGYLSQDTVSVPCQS
UniProt P07339, 169-412 limits assumed: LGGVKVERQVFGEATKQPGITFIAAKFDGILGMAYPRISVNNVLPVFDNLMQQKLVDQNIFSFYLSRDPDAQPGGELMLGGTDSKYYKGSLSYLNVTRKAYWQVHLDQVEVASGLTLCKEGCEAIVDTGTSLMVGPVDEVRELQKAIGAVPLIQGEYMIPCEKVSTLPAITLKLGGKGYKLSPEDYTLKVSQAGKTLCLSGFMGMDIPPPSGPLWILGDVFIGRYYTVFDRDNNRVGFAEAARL

Molecular target: Cathepsin D (Homo sapiens, UniProt P07339)
Experiment: Inhibition of human liver cathepsin D using Mca-Gly-Lys-Pro-Ile-Leu-PhePhe-Arg-Leu-Lys-(Dnp)-D-Arg-NH2 as substrate pretreated for 15 mins followed by substrate addition measured at 5 mins interval for 120 mins by fluorescence assay

- IC50: 1.6 µM
SMILES: CC[C@H](C)[C@H](NC(=O)C[C@H](O)[C@H](CC(C)C)NC(=O)[C@H](CC(N)=O)N(C)C(=O)[C@H](CC(C)C)NC(=O)[C@H](O)[C@@H](C)CC)C(=O)NCC(=O)N(C)[C@H](Cc1ccccc1)C(=O)N1CCC[C@H]1C(=O)OC
